From US20080182893A1, “Anti-Atherogenic Composition” (SAN-EI GEN F.F.I., INC., priority 2005, published 2008)

Test: Solubility in water

Substance: enzymatically modified isoquercitrin [EMIQ]
- solubility in water: readily soluble in water
